Target: FcγRIIa (Homo sapiens, UniProt P12318)
Experiment: FACS assay of activation of human platelets by heat aggregated IgG (HAGG), P-Selectin expression
Type: cell-based
Settings: read-out: Concentration at 50% inhibition of platelet activation by HAGG; washed human platelets, HAGG as agonist; several values in a cell = repeat determinations; '(ICnn)' after a '<' bound = inhibition level at that concentration

By UniProt entry, the sequences of proteins in these tests, tags left out. Residues count along the entry.
UniProt P12318, 34-317 limits assumed: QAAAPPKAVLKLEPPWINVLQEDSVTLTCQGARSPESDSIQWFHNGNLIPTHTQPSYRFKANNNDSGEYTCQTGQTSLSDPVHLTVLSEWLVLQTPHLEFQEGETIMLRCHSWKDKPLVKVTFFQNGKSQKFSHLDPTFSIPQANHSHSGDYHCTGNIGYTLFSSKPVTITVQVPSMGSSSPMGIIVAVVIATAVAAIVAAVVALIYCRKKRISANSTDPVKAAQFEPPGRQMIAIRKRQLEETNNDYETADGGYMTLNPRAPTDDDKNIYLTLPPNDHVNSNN

O=C(O)c1cc2c(c([N+](=O)[O-])c1)-c1c(cc([N+](=O)[O-])cc1[N+](=O)[O-])C2=O
IC50: < 140 µM
